Test results as given in patent US9872847B2 (priority 2013, dated 2018).

Test system: MES (electrical stimulus) seizure
Test: Anti-excitation activity using MES test
Format: in vivo, male ICR mice
Settings: MES test (po), mice, injection amount 50 mg/kg

Structure (SMILES) | Protection % (percentage of activity compared to the vehicle only)
C[C@H](OC(N)=O)[C@@H](O)c1ccccc1F [Compound 63, 1-(2-fluorophenyl)-(S)-1-hydroxypropyl-(S)-2-carbamate] | 50 ^a(100%)
C[C@H](OC(N)=O)[C@@H](O)c1ccccc1I [Compound 65, 1-(2-iodophenyl)-(S)-1-hydroxypropyl-(S)-2-carbamate] | 50 ^a(100%)

Same assay, conditions: MES test (po), mice, injection amount 100 mg/kg

Structure (SMILES) | Protection % (percentage of activity compared to the vehicle only)
CCCC[C@H](OC(N)=O)[C@@H](O)c1c(Cl)cccc1Cl | 100 ^a(75%)
CCCC[C@H](OC(N)=O)[C@@H](O)c1ccc(Cl)cc1Cl | 100 ^a(25%)
CCCC[C@H](OC(N)=O)[C@@H](O)c1ccccc1Cl | 100 ^a(75%)
CCC(OC(N)=O)C(O)c1ccccc1Cl (racemic) | 100 ^a(100%)
CC[C@H](OC(N)=O)[C@@H](O)c1ccccc1I [Compound 67, 1-(2-iodophenyl)-(S)-1-hydroxybutyl-(S)-2-carbamate] | 100 ^a(100%)

Same assay, conditions: MES test (po), mice, injection amount 200 mg/kg

Structure (SMILES) | Protection % (percentage of activity compared to the vehicle only)
CCCC[C@@H](OC(N)=O)[C@H](O)c1ccccc1Cl | 200 ^a(75%)
CCCCC(OC(N)=O)C(O)c1ccccc1Cl (racemic) | 200 ^a(100%)
